Target: human M4 muscarinic acetylcholine receptor (Homo sapiens, UniProt P08173)
Experiment: human FLIPR-based M4 PAM assay, CHO-K1 cells stably transfected with human M4 receptor and chimeric G-protein Gαqi5
Details: read-out: M4 PAM IP; inflection point (IP) of dose response curve; acetylcholine added at 20% of maximum response; CHO-K1 human M4/Gαqi5, FLIPR Tetra
Protocol: In a typical experiment the M4 muscarinic acetylcholine receptor modulating activity of the compounds of the present invention was determined in accordance with the following experimental method. CHO-K1 cells stably transfected with human M4 receptor and chimeric G-protein Gαqi5 (Coward P, et al., Analytical Biochemistry, 270:242-248 (1999)) are thawed from liquid N2 storage, resuspended in growth medium, plated in black, clear bottom 384 well plates, and incubated 16-20 hours at 37° C., 5% CO2. On the day of assay, growth medium is removed, the cells are washed 2 times with wash buffer, and cells are incubated in dye loading buffer at 37° C., 5% CO2 for ˜1 hour. Following dye loading the cell plates are placed in a FLIPR Tetra instrument and while monitoring dye fluorescence (excitation […]), 10 uL of test substance at increasing concentrations is added, and fluorescence values are recorded for 4 min. Next, 10 uL of acetylcholine is added (final concentration calculated so as to achieve 20% of the maximum acetycholine response), and the fluorescence reading is continued for 3.5 min. In some cases, a third addition of acetylcholine (final concentration calculated to achieve 70% of the maximal acetylcholine response) is performed. […]

Protein sequences, listed by entry. Tags and fused reporters are not part of them.
UniProt P08173, whole entry: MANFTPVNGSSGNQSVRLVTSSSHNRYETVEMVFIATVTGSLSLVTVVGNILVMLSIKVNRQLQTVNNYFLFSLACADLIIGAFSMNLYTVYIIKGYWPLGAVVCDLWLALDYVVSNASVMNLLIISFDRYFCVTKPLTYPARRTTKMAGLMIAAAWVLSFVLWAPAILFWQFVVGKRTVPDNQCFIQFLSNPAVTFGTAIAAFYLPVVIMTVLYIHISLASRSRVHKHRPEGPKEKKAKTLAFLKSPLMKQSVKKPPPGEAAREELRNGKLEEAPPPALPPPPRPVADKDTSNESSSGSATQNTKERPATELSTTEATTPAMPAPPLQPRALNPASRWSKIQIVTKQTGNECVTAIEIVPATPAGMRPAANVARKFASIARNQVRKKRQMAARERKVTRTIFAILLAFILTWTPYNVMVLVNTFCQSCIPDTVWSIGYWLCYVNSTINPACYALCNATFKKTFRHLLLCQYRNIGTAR

COc1ccc(OC2CCN(c3ncc(C(=O)NCc4ccncc4)cc3C)CC2)cn1
EC50: 208 nM
